# Assay results published in US8148386B2, “Agent for the prevention and treatment of prostatic hyperplasia comprising pyrazolopyrimidinone compound” (priority 2006, dated 2012).
# Assay: Interrupt rate of administration due to side effects of PDE-5 inhibitors after clinical trials on impotence
smiles,measurement,value
"CCCOc1ccc(S(=O)(=O)NCCC2CCCN2C)cc1-c1nc2c(CCC)nn(C)c2c(=O)[nH]1 (stereo not shown) [Compound of formula 1, 5-[2-propyloxy-5-(1-methyl-2-pyrrolidinylethylamidosulfonyl)phenyl]-1-methyl-propyl-1,6-dihydro-7H-pyrazolo(4,3-d)pyrimidin-7-one]",side effects such as testicle toxicity or myalgia,not manifested
